Target: p38 (Homo sapiens, UniProt Q16539)
Assay: Protein Kinase Assay (33P incorporation from γ-[33P]ATP into GST-ATF-2)
Conditions: read-out: ACT. (Activity), IC50 category in Protein Kinase Assay; 2 nM p38, preincubated 20 min at 30° C.; 10 uM cold ATP, 2 uM GST-ATF2, 70 min
Description: Protein Kinase Assay. The protein kinase activity of p38 was determined by measuring the incorporation of ^33P from γ-[^33P]ATP into the GST-ATF-2 substrate, amino acids 19-96 (Upstate, N.Y. USA). The reactions were carried out in a final volume of 50 μL of 24 mM Tris-HCl buffer, pH 7.5, containing 13 mM MgCl2, 12% Glycerol, 2% DMSO, 2 mM DTT, […] of γ-[^33P]ATP (1000 Ci/mmol; 1 Ci=37 GBq) (GE Healthcare, Piscataway, N.J.), 10 uM cold ATP (GE Healthcare, Piscataway, N.J.), and 2 uM GST-ATF2. Compounds were preincubated with 2 nM p38 for 20 min at 30° C.; the reactions were initiated by the addition of GST-ATF2 and ATP and incubated for 70 min at 30° C. before being stopped by the addition of 10 μL of 600 mM phosphoric acid. The phosphorylated substrate was captured on phosphocellulose 96-well plate (Millipore MAPHNOB 10), washed with 100 mM phosphoric acid, and counted in a BeckmenCoulter LS6500 liquid scintillation counter. […] (Activity).

By UniProt entry, the sequences of proteins in these tests, tags left out.
UniProt Q16539, whole entry: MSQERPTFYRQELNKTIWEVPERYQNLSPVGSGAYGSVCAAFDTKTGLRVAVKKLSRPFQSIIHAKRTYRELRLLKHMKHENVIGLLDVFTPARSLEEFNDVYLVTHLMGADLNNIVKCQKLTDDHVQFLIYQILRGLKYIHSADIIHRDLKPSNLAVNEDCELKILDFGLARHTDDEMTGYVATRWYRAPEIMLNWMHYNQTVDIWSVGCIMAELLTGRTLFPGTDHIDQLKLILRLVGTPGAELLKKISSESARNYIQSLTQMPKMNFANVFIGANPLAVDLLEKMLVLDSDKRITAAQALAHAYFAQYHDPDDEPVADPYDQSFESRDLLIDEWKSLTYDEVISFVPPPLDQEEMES

Cc1ccc(NC(=O)Nc2sc(C(C)(C)C)cc2C(=O)N2CCNC(=O)C2(C)C)cc1-c1ccc(NCC(O)CO)nc1 (centres unmarked)
IC50: < 0.1 µM

Cc1ccc(NC(=O)Nc2sc(C(C)(C)C)cc2C(=O)N2CCNC(=O)C2(C)C)cc1-c1ccc(C(=O)N(C)C)nc1
IC50: < 0.1 µM

Reference: patent US20100041642A1, “UREA INHIBITORS OF MAP KINASES” (LOCUS PHARMACEUTICALS, INC., priority 2008, published 2010)
